Data as given in patent publication US20100144645A1, “COMPOSITIONS AND METHODS FOR ENHANCING […] POTENCY OF […]-COMPOUNDS, A[…] ADVERSE SIDE EFFECTS, AND […] ABUSE” (SHIRE LLC, priority 2006, published 2010).

Tests used:
[1] = Oral bioavailability of hydrocodone conjugates (plasma hydrocodone plus hydromorphone); conditions: rats, relative to hydrocodone
[2] = Intranasal bioavailability of hydrocodone conjugates; conditions: rats, relative to hydrocodone

| Substance | bioavailabiltty (% HC) oral AUC [1] [% HC] | bioavailabiltty (% HC) oral Cmax [1] [% HC] | bioavailabiltty (% HC) IN AUC [2] [% HC] | bioavailabiltty (% HC) IN Cmax [2] [% HC] |
| --- | --- | --- | --- | --- |
| (d)-Lys-(1)-Lys-Ile-Hydrocodone [(d)Lys(I)Lys-Ile-HC] | 141 | 174 | 41 | 54 |
| Gly-Gly-Leu-Hydrocodone [Gly-Gly-Leu-HC] | 82 | 126 | 77 | 62 |
